Test results as given in paper PMC3089805 (Chemmedchem, 2010).

Tested on: C. jejuni strain H840
Assay: MIC determination, liquid microdilution, C. jejuni
Assay type: cell-based
Conditions: Campylobacter jejuni, H840, 27 h, read-out: MIC C. jejuni

## O=C(Nc1ncc([N+](=O)[O-])s1)c1ccc(Cl)s1 [Analogue 77, 5-Chloro-N-(5-nitrothiazol-2-yl)thiophene-2-carboxamide]
  MIC: 6.9 µM (≈ 2 µg/mL)

In brackets after ≈: the same amount, converted by molar mass.
